The values below are quoted from earlier work in patent US20200392239A1, “USE OF A MULTIMERIC ANTI-DR5 BINDING MOLECULE IN COMBINATION WITH A CHEMOTHERAPEUTIC AGENT FOR TREATING CANCER” (IGM Biosciences, Inc., priority 2018, published 2020).

The series has as its target DR5 (Homo sapiens, UniProt O14763). The note with it: Reck et al., 2013; cited from earlier work.

In the case of “Tigatuzumab: anti-DR5 monoclonal antibody (CS-1008, Daiichi Sankyo Co. Ltd., U.S. Pat. No. 7,244,429)”, the clinical efficacy entry is reported as “not resulted in significant clinical efficacy”.
